Data published in paper PMC3638264 (Journal of Medicinal Chemistry, 2013).

Target: T1, AKR1C4 (Homo sapiens, UniProt P17516)
T1 sequence (P17516 1-323): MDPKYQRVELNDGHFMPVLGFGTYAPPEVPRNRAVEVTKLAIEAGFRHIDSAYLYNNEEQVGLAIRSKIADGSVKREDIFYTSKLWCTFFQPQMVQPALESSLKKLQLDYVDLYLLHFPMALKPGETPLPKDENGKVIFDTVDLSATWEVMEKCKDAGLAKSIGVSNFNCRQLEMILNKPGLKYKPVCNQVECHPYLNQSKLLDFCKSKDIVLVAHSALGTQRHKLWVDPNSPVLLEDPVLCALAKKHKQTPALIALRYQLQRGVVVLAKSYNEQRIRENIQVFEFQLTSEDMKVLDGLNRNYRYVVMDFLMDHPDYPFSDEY
Format: biochemical

Compound: COc1ccc2c(c1)c(CC(=O)O)c(C)n2C(=O)c1ccc(CCl)cc1 [Compound 3]
- IC50 ratio AKR1C4/AKR1C3 (value in parentheses): 49.75 (415)

Compound: COc1ccc2c(c1)c(C)c(CCC(=O)NS(C)(=O)=O)n2C(=O)c1ccc(Cl)cc1 [Compound 50, 3-(1-(4-Chlorobenzoyl)-5-methoxy-3-methyl-1H-indol-2-yl)-N-(methylsulfonyl)propanamide]
- IC50 ratio AKR1C4/AKR1C3 (value in parentheses): 12.64 (37)
